Test results reported in US10881712B2, “Neuroprotective agents derived from spider venom peptides” (THE UNIVERSITY OF QUEENSLAND, priority 2015, dated 2021).
Residue numbers refer to the chain shown, from its start. “Also recorded” adds a separate entry of the source.

Tests used:
[1] = test system: spontaneously hypertensive rats (SHR); test: Focal reperfusion (endothelin-1) stroke model in conscious SHR, i.c.v. administration; format: in vivo, rat; conditions: single i.c.v. dose two hours after stroke; Hi1a 2 ng/kg, PcTx1 and mutant 1 ng/kg; 72 h post-stroke
Method: The neuroprotective efficacy of Hi1a was assessed in a rat model of focal cerebral ischemia. In vivo experiments were conducted using a focal reperfusion model of stroke in conscious spontaneously hypertensive rats (SHR) as previously reported (McCarthy et al., Neuropharmacology 99, 650-657, 2015). Two 23-gauge stainless steel guide cannulae were stereotaxically implanted into anaesthetised animals (ketamine 75 mg/kg; xylazine 10 mg/kg; intraperitoneal) 5 days prior to stroke induction. The first cannula was implanted 3 mm dorsal to the right middle cerebral artery for stroke induction. The second cannula was implanted into the left lateral ventricle for drug administration.
After 5 days recovery, stroke was induced in conscious rats by inserting a 30-gauge injector protruding 3 mm below the previously implanted cannula. […] Only animals that achieved a level 4 stroke were included in the study. Typical behaviours associated with a level 4 stroke include continuous ipsilateral circling, clenching, dragging, failure to extend the left contralateral forelimb, chewing, jaw flexing, and shuffling with forepaws.
Compared to models of middle cerebral artery occlusion (MCAO) achieved by surgical exposure of the artery, this model has the advantage of minimal surgical intervention in the brain, and the stroke is induced in the absence of anaesthetics, which can confound the results of drug studies (Callaway et al., 1999; Sharkey et al., 1993). Stroke-induced motor deficit was assessed by counting the number of foot faults made while rats traversed a gradually narrowing ledged beam (McCarthy et al., Stroke 40, 1482-1489, 2009). Animals were trained to traverse the beam on two consecutive days prior to pre-stroke assessment. For the neurological score, postural abnormalities were assessed by elevating the rat by the tail above a flat surface and grading the severity of thorax twisting and the angle of forelimb extension. Both indicators of neurological health are scored between 0 and 3, with a score of 0 corresponding to no twisting of the thorax or complete forelimb extension towards the flat surface. A score of 3 corresponds to severe thorax twisting and a failure to extend the forelimb. The score for thorax twisting and forelimb extension are summed to give a total possible score of 6, which represents severe neurological deficit. Both behavioural tests were performed prior to stroke, and at 24 and 72 h after stroke.
At 72 h post-stroke, rats were re-anaesthetised (ketamine 75 mg/kg; xylazine 10 mg/kg; intraperitoneal) and transcardially perfused with physiologically buffered saline. Brains were removed, snap frozen and sectioned (16 μm) at eight pre-determined forebrain levels (−3.20 mm to 6.8 mm) relative to bregma. Sections were imaged, and infarct volumes were measured using the ballistic light method and corrected for edema (McCarthy et al., Stroke 40, 1482-1489, 2009).
The doses of Hi1a and PcTx1 were chosen to give approximately equivalent molar concentrations as Hi1a is twice the molecular mass of PcTx1. Drugs were dissolved in saline and infused in a volume of 3 μl over 3 min. At 3 days after stroke, the brains were perfused, removed, then snap frozen and sectioned to determine the infarct size.
In a separate series of experiments, Hi1a (2 ng/kg) was administered i.c.v. to SHR at 2, 4 or 8 hours after stroke induction. Motor-coordination (ledged beam test) and stroke-related postural abnormalities (neurological test) were evaluated at days 1 and 3 post-stroke. At 3 days after stroke, the brains were perfused, removed, then snap frozen and sectioned to determine the infarct size.

rASIC1a = target: T1, rASIC1a (Rattus norvegicus, UniProt P55926); test: Two-electrode voltage clamp (TEVC) on Xenopus laevis oocytes expressing homomeric rASIC1a; format: cell-based
T1 construct: expressed in transfected cells; host or cells: Xenopus laevis oocytes injected with cRNA
T1 sequence (P55926 1-526): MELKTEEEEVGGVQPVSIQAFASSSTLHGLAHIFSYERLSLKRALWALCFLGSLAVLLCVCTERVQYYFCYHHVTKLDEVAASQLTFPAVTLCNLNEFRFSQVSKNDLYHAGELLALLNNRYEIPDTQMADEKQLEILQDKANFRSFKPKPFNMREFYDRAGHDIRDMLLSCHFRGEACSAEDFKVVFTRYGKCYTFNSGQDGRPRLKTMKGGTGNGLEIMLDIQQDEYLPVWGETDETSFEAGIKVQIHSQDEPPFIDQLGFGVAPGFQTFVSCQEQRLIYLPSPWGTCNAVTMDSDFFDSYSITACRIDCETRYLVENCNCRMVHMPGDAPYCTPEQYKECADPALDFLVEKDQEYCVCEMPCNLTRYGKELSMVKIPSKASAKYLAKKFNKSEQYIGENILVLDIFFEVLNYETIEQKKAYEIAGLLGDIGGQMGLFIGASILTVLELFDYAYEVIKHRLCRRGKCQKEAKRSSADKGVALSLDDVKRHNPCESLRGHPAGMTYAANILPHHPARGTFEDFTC
Method: The ability of the peptides of the invention to modulate ASIC currents was assessed using two-electrode voltage clamp (TEVC) electrophysiology experiments performed on Xenopus laevis oocytes expressing homomeric ASIC channels. Xenopus oocytes are widely used as an expression system for functional characterisation of ion channel modulators. TEVC allows measurement of whole-cell ion channel currents while controlling the membrane potential.
Oocytes were harvested from anaesthetised female X. laevis then defolliculated by treatment with collagenase (Sigma, type I). Oocytes were injected with in vitro transcribed ASIC cRNA (capped RNA). Oocytes were kept at 17-18° C. in ND96 solution containing 96 mM NaCl, 2 mM KCl, 1.8 mM CaCl2, 2 mM MgCl2, 5 mM HEPES, 5 mM pyruvic acid, 50 μg/ml gentamicin (pH 7.4), and fetal horse serum (2.5%), and experiments were performed at room temperature (21-22° C.) 1-3 days after cRNA injection. Oocytes were clamped at −60 mV (Warner OC-725C oocyte clamp; Warner Instruments, CT, USA) using two standard glass microelectrodes of 0.5-2 MΩ resistance when filled with 3 M KCl. Data acquisition and analysis were performed using pCLAMP software, Version 10 (Axon Instruments, CA, USA). Currents were elicited by a drop in pH from 7.45 to 6.0 using a microperfusion system to allow rapid solution exchange. All experiments were performed using ND96 solution spiked with 0.1% BSA in order to minimise adsorption of peptides to plastic tubing.

ASIC1a = conditions: cited from earlier work
rat ASIC1a (rASIC1a) = target: T2, rat ASIC1a (rASIC1a) (Rattus norvegicus, UniProt P55926); conditions: background art; cited from earlier work
T2 sequence (P55926 1-526): T1 sequence (P55926 1-526)

F350A mutant rASIC1a = target: T3, F350A mutant rASIC1a (Rattus norvegicus, UniProt P55926, F350A); conditions: Sherwood et al., 2009; cited from earlier work
T3 construct: expressed in transfected cells; host or cells: Xenopus oocytes
T3 sequence (P55926 1-526 F350A): T1 sequence (P55926 1-526) with F350A

[2] = test system: other ASIC homomers or heteromers; conditions: background art; cited from earlier work

## CC[C@H](C)[C@@H]1NC(=O)[C@@H](NC(=O)[C@H](CC(=O)O)NC(=O)[C@@H](N)CCC(=O)O)CSSC[C@@H]2NC(=O)[C@@H]3CSSC[C@@H](C(=O)N[C@H](C(=O)N4CCC[C@H]4C(=O)N[C@@H](CCCCN)C(=O)N[C@H](C(=O)N4CCC[C@H]4C(=O)N[C@@H](CCCCN)C(=O)N[C@H](C(=O)O)[C@@H](C)O)[C@@H](C)O)C(C)C)NC(=O)[C@H](C(C)C)NC(=O)[C@H](CCC(=O)O)NC(=O)[C@H](Cc4ccccc4)NC(=O)[C@H](CO)NC(=O)[C@H](CCCNC(=N)N)NC(=O)[C@H](CCCNC(=N)N)NC(=O)[C@H](CCCNC(=N)N)NC(=O)[C@H](CCCCN)NC(=O)[C@H](Cc4c[nH]c5ccccc45)NC(=O)[C@H](CSSC[C@H](NC(=O)CNC(=O)[C@H](CCCCN)NC(=O)[C@H](Cc4c[nH]c5ccccc45)NC(=O)[C@H](CCCCN)NC(=O)[C@@H]4CCCN4C1=O)C(=O)N[C@@H](C(C)C)C(=O)N[C@@H](CC(N)=O)C(=O)N[C@@H](CCCNC(=N)N)C(=O)N[C@@H](Cc1c[nH]cn1)C(=O)NCC(=O)N[C@@H](CC(=O)O)C(=O)N3)NC(=O)[C@H](CCC(=O)O)NC(=O)[C@H](CC(C)C)NC(=O)CNC(=O)[C@H](CCC(=O)O)NC2=O [PcTx1, reference compound]
[1]
  Infarct size in cortical (penumbral) and striatal (core) regions: significant reduction in infarct volume; also recorded: reduced infarct size
rASIC1a; 10 nM peptide
  Time to full reversal of inhibition upon washout: ≤ 15 min
rASIC1a; at saturating concentrations
  Extent of inhibition of ASIC1a currents (full or incomplete): full inhibition
rASIC1a; upon washout
  Reversibility of inhibition (in words): rapidly reversible; also recorded: rapid, fully reversible inhibition
ASIC1a; applied at pH 7.9, Chen et al., 2005
  Effect on activation curve: shifts the activation curve for ASIC1a to more alkaline values
ASIC1a; physiological pH of 7.4
  Effect on steady-state desensitisation (SSD) curve: parallel shift in the steady-state desensitisation (SSD) curve to more alkaline values
Rat ASIC1a (rASIC1a)
  IC50: ~1 nM
F350A mutant rASIC1a
  Effect of F350A mutation on inhibition of ASIC1a: abolishes the ability
[2]
  Inhibition of other ASIC homomers or heteromers: does not inhibit
